Here are results for 2 molecules from PubChem BioAssay AID2241 (Broad Institute, 2010).

This is a selection; strong and weak results do not stand in their true shares. Calls of active or inactive are those of the source.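 How the source made its calls: active means most replicate scores above 10, or exactly half above 10 with mean activity above 10; inconclusive means mean activity below 10 while half the replicates exceed 10; inactive means most replicate scores below 10.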

A short description of the experiment: inducers of caspase activity in MEF A1-2A-BIM cells, primary screen, A1 inhibitor project, cell-based, CaspaseGlo luminescence (AID 2241).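 Further: effector caspase 3 and 7 activity cleaving a DEVD luciferin substrate.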 Particulars: caspase-Glo luminescence, 3 h, active compounds read high, percent of clofoctol signal, DMSO as zero, concentration not given here.
Regarding `CC(C)(C)OC(=O)N1CCC(Nc2ccc(OC(F)(F)F)cc2)CC1`, the caspase activation was inactive: 1.3%.

For the molecule `FC(F)(F)Oc1ccc(NC2CCNCC2)cc1`, the caspase activation was inactive: -0.436%.
